Article PMC10615923

Sequences of proteins named here, by UniProt entry; tags and fusion partners are left off. A change or cut given only in a name is not applied to a line headed by its entry.
UniProt P20813: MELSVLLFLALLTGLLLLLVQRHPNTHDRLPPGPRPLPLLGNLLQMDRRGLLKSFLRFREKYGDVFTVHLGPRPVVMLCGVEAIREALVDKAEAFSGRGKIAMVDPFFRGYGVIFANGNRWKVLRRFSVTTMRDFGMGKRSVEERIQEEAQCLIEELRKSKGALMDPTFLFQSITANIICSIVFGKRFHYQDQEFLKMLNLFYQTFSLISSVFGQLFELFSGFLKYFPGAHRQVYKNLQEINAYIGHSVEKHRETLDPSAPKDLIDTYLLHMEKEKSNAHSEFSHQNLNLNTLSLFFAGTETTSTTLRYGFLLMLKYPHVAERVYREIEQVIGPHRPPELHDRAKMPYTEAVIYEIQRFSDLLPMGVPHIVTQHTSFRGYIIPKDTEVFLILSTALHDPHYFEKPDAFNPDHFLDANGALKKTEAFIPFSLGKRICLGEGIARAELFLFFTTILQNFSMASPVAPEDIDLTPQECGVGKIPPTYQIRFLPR

Columns and labels:
[1] = target: CYP2B6 (Homo sapiens, UniProt P20813); conditions: HLM preheated for 5 min at 45 ℃; 37 ℃ = 100%
[2] = test system: HLM; test: TATP hydroxylation (TATP-OH formation) in HLM with chemical inhibitors or heat; conditions: inhibitor preincubated in HLM for 30 min (1-ABT 1 mM, MMI 500 µM, TIC 100 µM), substrate TATP 100 µM, no inhibitor = 100%
[3] = Urine analysis of laboratory workers exposed to TATP vapor; conditions: three volunteers
[4] = test system: FMO; test: Benzydamine N-oxidation (FMO probe) in HLM with chemical inhibitors or heat; conditions: HLM preheated for 5 min at 45 ℃; 37 ℃ = 100%

Compound: hydroxybupropion
- BUP-OH formation in 15 min, percent found [1]: 99 ± 2%

Compound: Clc1ccccc1CN1CCc2sccc2C1
- TATP-OH formation in 15 min, percent found [2]: 4.8 ± 0.7%

Compound: CC(NC(C)(C)C)C(=O)c1cccc(Cl)c1 (stereo not drawn)
- TATP-OH formation in 15 min, percent found [2]: 125 ± 21%
- TATP-OH formation in 15 min, percent found ([2]; listed as bupropion): 125%

Compound: Cn1cc[nH]c1=S
- TATP-OH formation in 15 min, percent found [2]: 34 ± 2%

Compound: CC1(C)OOC(C)(C)OOC(C)(COC2OC(C(=O)O)C(O)C(O)C2O)OO1 (stereo not drawn)
- Volunteers still showing the metabolite in urine collected the next day [3]: Two out of the three volunteers

Compound: benzydamine N-oxide
- BZD-NO formation in 15 min, percent found [4]: 44 ± 2%

Compound: Nn1nnc2ccccc21
- TATP-OH formation in 15 min, percent found [2]: 3.6 ± 0.7%
- TATP-OH formation in 15 min, percent found ([2]; listed as 1-aminobenzotriazole): 3.6%
